In US9234200B2, “Oligonucleotide, glucocorticoid sensitivity enhancer, pharmaceutical composition, and expression vector” (National University Corporation Tokyo University of …, priority 2011, dated 2016):

Test system: Raji cells
Test: Survival of SCID mice inoculated intraperitoneally with oligonucleotide 4-expressing or control Raji cells, with or without dexamethasone
Settings: dexamethasone 15 mg/kg intraperitoneal everyday, label dexamethasone = Control Raji cells

C[C@@H]1C[C@H]2[C@@H]3CCC4=CC(=O)C=C[C@]4(C)[C@@]3(F)[C@@H](O)C[C@]2(C)[C@@]1(O)C(=O)CO [dexamethasone, reference compound]
survival rate (Day 1): 100% | survival rate (Day 2): 100% | survival rate (Day 3): 100% | survival rate (Day 4): 100% | survival rate (Day 5): 100% | survival rate (Day 6): 100% | survival rate (Day 7): 100% | survival rate (Day 8): 100% | survival rate (Day 9): 100% | survival rate (Day 10): 100% | survival rate (Day 11): 100% | survival rate (Day 12): 100% | survival rate (Day 13): 100% | survival rate (Day 14): 100% | survival rate (Day 15): 100% | survival rate (Day 16): 100% | survival rate (Day 17): 100% | survival rate (Day 18): 100% | survival rate (Day 19): 100% | survival rate (Day 20): 90% | survival rate (Day 21): 90% | survival rate (Day 22): 90% | survival rate (Day 23): 80% | survival rate (Day 24): 80% | survival rate (Day 25): 80% | survival rate (Day 26): 80% | survival rate (Day 27): 70% | survival rate (Day 28): 60% | survival rate (Day 29): 60% | survival rate (Day 30): 60% | survival rate (Day 31): 60% | survival rate (Day 32): 60% | survival rate (Day 33): 60% | survival rate (Day 34): 60% | survival rate (Day 35): 60% | survival rate (Day 36): 50%
